We go through 2 compounds from ChEMBL document CHEMBL5512644 (Eur J Med Chem, 2024).

By UniProt entry, the sequences of proteins in these tests, tags left out. Where a name states a change or a piece, a line headed by the entry shows the natural chain unless it says otherwise.
UniProt Q9GZQ6: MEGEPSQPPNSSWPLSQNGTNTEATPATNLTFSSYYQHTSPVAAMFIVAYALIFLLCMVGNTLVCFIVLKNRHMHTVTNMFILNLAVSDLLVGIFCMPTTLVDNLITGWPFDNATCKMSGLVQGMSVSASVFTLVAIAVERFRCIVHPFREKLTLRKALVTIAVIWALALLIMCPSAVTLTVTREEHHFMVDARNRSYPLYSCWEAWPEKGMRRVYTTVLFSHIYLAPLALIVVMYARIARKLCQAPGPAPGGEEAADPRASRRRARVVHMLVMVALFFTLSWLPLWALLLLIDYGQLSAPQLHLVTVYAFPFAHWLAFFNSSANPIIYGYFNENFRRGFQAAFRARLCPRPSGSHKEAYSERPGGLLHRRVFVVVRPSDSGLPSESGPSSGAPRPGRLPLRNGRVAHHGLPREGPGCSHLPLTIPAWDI
UniProt Q9Y5X5: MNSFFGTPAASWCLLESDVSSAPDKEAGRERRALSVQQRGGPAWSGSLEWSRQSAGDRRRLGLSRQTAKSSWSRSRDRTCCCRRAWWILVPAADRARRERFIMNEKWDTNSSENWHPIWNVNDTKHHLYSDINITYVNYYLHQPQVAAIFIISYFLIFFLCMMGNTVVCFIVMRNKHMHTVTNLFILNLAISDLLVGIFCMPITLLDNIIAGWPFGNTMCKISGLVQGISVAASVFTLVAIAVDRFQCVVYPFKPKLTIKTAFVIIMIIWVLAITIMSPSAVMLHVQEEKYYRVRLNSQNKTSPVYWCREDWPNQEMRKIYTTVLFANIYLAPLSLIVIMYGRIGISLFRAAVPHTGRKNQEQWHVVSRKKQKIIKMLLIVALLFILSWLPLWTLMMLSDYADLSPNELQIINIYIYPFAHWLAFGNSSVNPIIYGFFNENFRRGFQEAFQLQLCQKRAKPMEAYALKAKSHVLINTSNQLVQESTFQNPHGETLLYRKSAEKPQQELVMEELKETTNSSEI

The source made the active and inactive calls. The calls are words filed in the database; no cut-off is given here.

Assay [1] concerns the target T1, Neuropeptide FF receptor 1 (Homo sapiens, UniProt Q9GZQ6). As to the kind of experiment: Agonist activity at human NPFF1 receptor expressed in CHO cells assessed as inhibition of forskolin induced cAMP production upto 10 uM incubated for 30 mins by TR-FRET assay. It is filed as functional, cell-based.
The target of assay [2] is T2, Neuropeptide FF receptor 2 (Homo sapiens, UniProt Q9Y5X5). Nature of the assay: Agonist activity at human NPFF2 receptor expressed in CHO cells assessed as inhibition of forskolin induced cAMP production upto 10 uM incubated for 30 mins by TR-FRET assay. The class given is functional, cell-based. A general note: Changes in cAMP serve as a functional read-out for many G protein-coupled receptors.

The species named for assay [3] is Homo sapiens. Nature of the assay: Selectivity ratio of Ki for displacement of [3H]NPVF from monoclonal human NPFF1 receptor expressed in CHO cells to Ki for displacement of [3H]-EYF from monoclonal human NPFF2 receptor expressed in CHO cells. It is filed as cell-based.
Assay [4] has as its target T1, Neuropeptide FF receptor 1. Nature of the assay: Antagonist activity at human NPFF1 receptor expressed in CHO cells assessed as reversal of NPFF inhibition of forskolin-induced cAMP production incubated for 30 mins by TR-FRET assay. The class given is functional, cell-based.
Assay [5] concerns the target T2, Neuropeptide FF receptor 2. Nature of the assay: Antagonist activity at human NPFF2 receptor expressed in CHO cells assessed as reversal of NPFF inhibition of forskolin-induced cAMP production incubated for 30 mins by TR-FRET assay. It is filed as functional, cell-based.

As for `O=C(CCN1CCCCC1)NCC1(Cc2cccc3ccccc23)CCN(Cc2ccccc2)CC1`, the outcome in assay [1], in assay [2], in assay [4] and in assay [5] was inactive. The Ratio Ki in assay [3] was 8.
As for `O=C(CN1CCC(Cc2ccccc2)CC1)NCC1(Nc2cccc3ccccc23)CCN(Cc2ccccc2)CC1`, the result in assay [1], in assay [2] and in assay [5] was inactive. The Activity entry in assay [4] (filed as antagonist) is “Dose-Dependent Effect”.
